For 2 compounds, IC50 results are on record in patent US20250034136A1 (Nimbus Wadjet, Inc., priority 2023, published 2025).

Sequences of proteins named here, by UniProt entry; tags and fusion partners are left off. A change or cut given only in a name is not applied to a line headed by its entry.
UniProt Q14191: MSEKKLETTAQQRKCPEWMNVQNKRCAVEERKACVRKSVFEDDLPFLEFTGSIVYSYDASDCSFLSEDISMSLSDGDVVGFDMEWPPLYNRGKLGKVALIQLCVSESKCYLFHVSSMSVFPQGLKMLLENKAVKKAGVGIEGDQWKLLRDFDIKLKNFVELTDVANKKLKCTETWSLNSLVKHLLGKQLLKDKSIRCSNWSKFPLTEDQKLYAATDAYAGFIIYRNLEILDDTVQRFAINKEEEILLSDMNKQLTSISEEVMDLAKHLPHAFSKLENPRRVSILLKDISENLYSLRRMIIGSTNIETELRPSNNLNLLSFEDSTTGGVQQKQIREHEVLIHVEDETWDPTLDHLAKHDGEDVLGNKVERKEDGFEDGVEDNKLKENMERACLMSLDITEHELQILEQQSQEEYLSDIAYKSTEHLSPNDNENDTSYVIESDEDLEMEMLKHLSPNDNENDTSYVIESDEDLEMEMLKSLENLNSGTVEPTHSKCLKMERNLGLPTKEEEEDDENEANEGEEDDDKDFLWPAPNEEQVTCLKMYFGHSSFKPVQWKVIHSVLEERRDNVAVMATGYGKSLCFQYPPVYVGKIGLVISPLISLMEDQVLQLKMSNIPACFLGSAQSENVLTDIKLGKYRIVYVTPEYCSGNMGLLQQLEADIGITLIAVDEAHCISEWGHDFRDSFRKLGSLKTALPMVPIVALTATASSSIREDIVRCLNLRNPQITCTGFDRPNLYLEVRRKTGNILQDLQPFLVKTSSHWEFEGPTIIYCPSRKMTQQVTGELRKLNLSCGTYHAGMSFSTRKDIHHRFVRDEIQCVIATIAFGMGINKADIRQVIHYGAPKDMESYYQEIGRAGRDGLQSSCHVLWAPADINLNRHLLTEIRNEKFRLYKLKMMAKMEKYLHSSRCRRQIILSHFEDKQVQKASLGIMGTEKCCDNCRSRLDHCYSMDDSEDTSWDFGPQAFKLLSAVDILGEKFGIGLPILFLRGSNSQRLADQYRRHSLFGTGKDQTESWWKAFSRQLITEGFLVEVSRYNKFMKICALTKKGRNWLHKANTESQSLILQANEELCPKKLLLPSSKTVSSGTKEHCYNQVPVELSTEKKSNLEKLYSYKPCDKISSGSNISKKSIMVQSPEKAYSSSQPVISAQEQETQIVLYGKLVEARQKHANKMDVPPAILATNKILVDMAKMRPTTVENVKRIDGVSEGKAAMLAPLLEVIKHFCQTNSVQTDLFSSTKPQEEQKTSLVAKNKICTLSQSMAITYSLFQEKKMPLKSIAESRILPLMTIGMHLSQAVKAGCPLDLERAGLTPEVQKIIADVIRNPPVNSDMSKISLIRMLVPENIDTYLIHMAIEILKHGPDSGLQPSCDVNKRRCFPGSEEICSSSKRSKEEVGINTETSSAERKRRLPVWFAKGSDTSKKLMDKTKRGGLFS

This assay has as its target WRN (BV08), human Werner helicase (Uniprot Q14191, amino acids 517-1235 with L1074F point mutation) (Homo sapiens (Human), UniProt Q14191, L1074F). Kind of assay: WRN (BV08) ADP-Glo assay. The following applies: class symbols A-E, read-out: ADP-Glo_hWRN_IC50. The assay is classed as biochemical. The method, then: Bovine skin gelatin (BSG), dimethyl sulfoxide (DMSO), Pluronic F-127 and tris(2-carboxyethyl)phosphine hydrochloride solution (TCEP) were purchased from Sigma-Aldrich (St. Louis, MO) at the highest level of purity possible. […] DNA strands were annealed by heating to 95° C. for 5 minutes followed by slow cooling to room temperature. Compounds in 100% DMSO (0.1 μl) were spotted into a 384-well white polystyrene Optiplate-384 (Perkin Elmer; Waltham, MA) assay plate using a LabCyte Echo 550 (Agilent; Santa Clara, CA). DMSO (0.1 μl) was added to columns 12, rows A-H and column 24, rows I-P for the maximum signal control. […] Compounds/DMSO were preincubated for 15 minutes at 25° C. with 5 μl 2×WRN (BV08), prepared as described below, in assay buffer containing 20 mM Bicine (pH=7.5), 1 mM MgCl2, 10 mM KCl, 0.1% Pluronic F-127, 0.005% BSG, 1 mM TCEP. The reaction was initiated by the addition of 5 μl 2× substrate mixture in assay buffer and incubated for 60 minutes at 25° C. […] The reaction was stopped by the addition of the ADP-Glo Kit components (Promega; Madison, WI) as directed and the relative luminescence units (RLU) were read on an Envision 2104 (Perkin Elmer; Waltham, MA). % inhibition calculation:
[formula] • Where RLU=relative luminescence units, sample=signal in sample well, and MIN and MAX are the respective minimum and maximum signal controls. […]

For the compound `CCc1c(N2CCN(C(=O)c3ncnc(C)c3O)[C@@H]3CC[C@H]32)c(=O)c2nc(N(C)C)cnc2n1CC(=O)Nc1ccc(C(F)(F)F)cc1Cl` (single isomer, unassigned) [I-39, N-(2-chloro-4-(trifluoromethyl)phenyl)-2-(2-(dimethylamino)-6-ethyl-7-(−5-(5-hydroxy-6-methylpyrimidine-4-carbonyl)-2,5-diazabicyclo[4.2.0]octan-2-yl)-8-oxopyrido[2,3-b]pyrazin-5(8H)-yl)acetamide], the IC50 lay in the range of 50 to 100 nM.
Take `[2H]C([2H])([2H])N(c1cnc2c(n1)c(=O)c(N1CCN(C(=O)c3ncnc(C)c3O)[C@H]3CC[C@@H]31)c(CC)n2CC(=O)Nc1ccc(C(F)(F)F)cc1Cl)C([2H])([2H])[2H]` [I-101, 2-(2-(bis(methyl-d3)amino)-6-ethyl-7-((1S,6S)-5-(5-hydroxy-6-methylpyrimidine-4-carbonyl)-2,5-diazabicyclo[4.2.0]octan-2-yl)-8-oxopyrido[2,3-b]pyrazin-5(8H)-yl)-N-(2-chloro-4-(trifluoromethyl)phenyl)acetamide]: the IC50 was in the range of 5 to 50 nM.
